According to PubChem BioAssay AID1671188 (National Center for Advancing Translational Sciences (NCATS), 2021):
The list shows a part of the results, in another mix than the full data. Records with an inconclusive call do not appear. Where a call stands in place of a potency, no number is given. Some salts and complexes are drawn in separate pieces, as the source files them; their charges need not balance. Calls of active or inactive are those of the source. The call rests on the fitted dose curve; in most records, active means well fitted inhibition curve with a large enough effect; inconclusive means small, poorly fitted or top-dose-only effect; inactive means flat fitted curve, though single readings scatter.

Protein sequences, listed by entry. Tags and fused reporters are not part of them.
UniProt Q8TD30, whole entry: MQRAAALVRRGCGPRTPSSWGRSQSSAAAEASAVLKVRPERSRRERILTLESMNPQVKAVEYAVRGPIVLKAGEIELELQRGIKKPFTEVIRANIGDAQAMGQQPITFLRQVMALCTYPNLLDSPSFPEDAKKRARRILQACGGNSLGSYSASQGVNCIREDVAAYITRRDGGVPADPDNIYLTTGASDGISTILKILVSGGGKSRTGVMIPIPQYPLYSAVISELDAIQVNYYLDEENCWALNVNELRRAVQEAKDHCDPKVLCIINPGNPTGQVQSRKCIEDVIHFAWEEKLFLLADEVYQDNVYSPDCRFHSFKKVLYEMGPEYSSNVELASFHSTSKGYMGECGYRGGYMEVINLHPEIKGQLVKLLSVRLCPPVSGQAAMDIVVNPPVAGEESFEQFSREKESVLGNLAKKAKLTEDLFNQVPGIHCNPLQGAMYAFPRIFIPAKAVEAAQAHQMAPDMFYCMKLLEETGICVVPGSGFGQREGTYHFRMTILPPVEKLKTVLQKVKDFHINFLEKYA

What follows are compounds tested against Alanine aminotransferase 2 (Homo sapiens) (UniProt Q8TD30) (assay: Primary qHTS assay for inhibitors of Glutamate pyruvate transaminase 2 (GPT2)). Conditions: Recombinant GPT2, coupled pyruvate oxidase/HRP Amplex Red fluorescence; series mostly up to 88.5 µM.
Procedure: Assay Provider: Zhenghe John Wang Ph.D.
Case Western Reserve University, Cleveland OH
Glutamate pyruvate transaminase 2 (GPT2) catalyzes the reversible transamination of glutamate and pyruvate to provide a-ketoglutarate and alanine. We have optimized an assay for GPT2 enzymatic activity that couples pyruvate formation to detection of fluorescence using an established pyruvate oxidase/horseradish peroxidase / Amplex Red system.
Screening conditions were 250uM a-KG, 2mM L-alanine, and 10ng/uL GPT2 in […] of solution; 10uL of Amplex reaction mix (outlined below) were added so that final concentrations of Amplex reagents in 50uL were 0.2mM ThPP, 0.2U/mL PO and HRP, and 50uM Amplex.
NOTE: The volume of GPT2 in the system depends on the activity of it. The activity is different every batch. You need to test the activity before the assay. For full plate assay with automation, plate 20uL of GPT2 buffer to pin into, then add 10uL of GPT2 dilution followed immediately by 10uL of substrate dilution. 2 Columns of the plate were devoted to GPT2 buffer ([…] PH7.5, 0.0001% Tween) + 50uM AOA (known GPT2 inhibitor) to serve as a positive control. Complete the assay as normal. Amplex-red buffer: […] PH7.5, 1 mM EDTA, 1 mM MgCl2.
1. Combine a-KG and L-alanine at desired concentrations and incubate for at least 10 minutes at 37C. Stocks of L-alanine and a-KG are diluted in distilled water. However, the stocks were diluted in GPT2 buffer for the assay.
2. Prepare GPT2 dilution at the desired concentration in GPT2 buffer.
3. Plate 40uL of GPT2 dilution with 40uL of substrate dilution and let incubate for 30 minutes at room temperature.
4. Add 20uL of Amplex reaction mix prepared as follows: 1.5uL 200U/mL Horseradish Peroxidase, 200mM Thiamine Pyrophosphate, 200U/mL Pyruvate Oxidase; 7.5uL 10mM Amplex Red; 288uL Amplex Buffer.
5. Incubate for 30 minutes at room temperature in the dark, then image using AM_Amplex_Fluorescence on plate reader nearest the window.
Further: nearly all actives have a fitted effect of over 60% in size.
Potency means the concentration at half of the fitted maximal effect.

Row | Compound | Potency
1 | OCCSCCO | inactive
2 | CNCc1cccc(C)n1.OOC#COO | inactive
3 | CC1=C2[N-][C@@](C)([C@@H]3N=C(C(C)=C4N=C(C=C5N=C1[C@@](C)(CC(N)=O)[C@H]5CCC(N)=O)C(C)(C)[C@H]4CCC(N)=O)[C@](C)(CCC(=O)NC[C@@H](C)OP(=O)([O-])O[C@H]1[C@@H](O)[C@@H](n4cnc5cc(C)c(C)cc54)O[C@H]1CO)[C@H]3CC(N)=O)[C@@](C)(CC(N)=O)[C@@H]2CCC(N)=O.[C-]#N.[Co+3] | active: 1330 nM
4 | Cc1cccc([N+](=O)[O-])c1[N+](=O)[O-] | inactive
5 | CN(C(=O)Cc1ccccc1)[C@H]1CC[C@@]2(CCCO2)C[C@@H]1N1CCCC1 | inactive
6 | CCn1c(=O)n([C@@H]2CCN(CC3CCCCCCC3)C[C@@H]2CO)c2ccccc21 | inactive
7 | O=[N+]([O-])c1cccc([N+](=O)[O-])c1 | inactive
8 | NC(=O)Nc1ccc([As](=O)(O)O)cc1 | inactive
9 | CCn1c(=O)n([C@@H]2CCN(CC3CCCCCCC3)C[C@H]2CO)c2ccccc21 | inactive
10 | CN(C(=O)Cc1ccc(Cl)c(Cl)c1)[C@@H]1CC[C@]2(CCCO2)C[C@H]1N1CCCC1 | inactive
11 | C/C1=C2N=C(/C=C3N=C(/C(C)=C4\N=C(C(CC(N)=O)C4(C)CCC(=O)NCC(C)OP(=O)([O-])OC4C(CO)OC(n5cnc6cc(C)c(C)cc65)C4O)C4(C)N=C1C(CCC(N)=O)C4(C)CC(N)=O)C(CCC(N)=O)C\3(C)C)C(CCC(N)=O)C/2(C)CC(N)=O.[C-]#N.[Co] (stereo unspecified) | active: 1000 nM
